{
  "sequences": {"note": "By UniProt entry, the sequences of proteins in these tests, tags left out.", "UniProt O60674, whole entry": "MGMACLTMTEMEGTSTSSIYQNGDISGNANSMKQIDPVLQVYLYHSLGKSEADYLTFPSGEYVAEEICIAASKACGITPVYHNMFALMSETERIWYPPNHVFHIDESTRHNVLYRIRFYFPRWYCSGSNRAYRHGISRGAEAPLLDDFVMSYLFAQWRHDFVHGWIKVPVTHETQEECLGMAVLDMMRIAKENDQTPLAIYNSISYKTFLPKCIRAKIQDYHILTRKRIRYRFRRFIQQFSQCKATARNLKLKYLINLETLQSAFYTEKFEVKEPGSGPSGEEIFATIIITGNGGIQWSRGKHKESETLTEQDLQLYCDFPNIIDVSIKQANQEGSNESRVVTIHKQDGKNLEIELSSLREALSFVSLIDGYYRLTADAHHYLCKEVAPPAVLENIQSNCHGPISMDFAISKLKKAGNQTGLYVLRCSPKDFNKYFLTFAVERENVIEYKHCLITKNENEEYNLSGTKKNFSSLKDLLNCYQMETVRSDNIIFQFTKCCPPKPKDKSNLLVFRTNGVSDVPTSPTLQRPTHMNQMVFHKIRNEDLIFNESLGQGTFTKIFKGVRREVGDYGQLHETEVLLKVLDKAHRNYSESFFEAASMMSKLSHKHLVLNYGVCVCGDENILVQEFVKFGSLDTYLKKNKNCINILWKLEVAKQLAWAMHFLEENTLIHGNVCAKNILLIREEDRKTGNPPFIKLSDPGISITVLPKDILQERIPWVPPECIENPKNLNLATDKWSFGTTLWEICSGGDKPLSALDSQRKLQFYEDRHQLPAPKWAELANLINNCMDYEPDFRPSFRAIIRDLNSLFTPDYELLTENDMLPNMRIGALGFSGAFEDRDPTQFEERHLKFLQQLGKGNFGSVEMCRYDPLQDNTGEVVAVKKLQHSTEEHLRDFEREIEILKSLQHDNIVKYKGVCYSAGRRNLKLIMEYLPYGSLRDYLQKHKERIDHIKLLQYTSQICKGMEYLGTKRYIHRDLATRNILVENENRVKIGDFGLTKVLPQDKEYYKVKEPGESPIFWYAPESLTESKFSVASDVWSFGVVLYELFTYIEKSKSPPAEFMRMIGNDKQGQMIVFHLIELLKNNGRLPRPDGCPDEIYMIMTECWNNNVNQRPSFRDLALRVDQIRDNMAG"},
  "source": "patent US20120157500A1",
  "about": "“JAK INHIBITION BLOCKS RNA INTERFERENCE ASSOCIATED TOXICITIES” (priority 2009, published 2012)",
  "key": {"Jak2": {"biological_target": "Jak2 (Homo sapiens, UniProt O60674)"}, "[1]": {"assay": "Treatment with Jak2 inhibitor alone, adverse effects (data not shown)"}, "[2]": {"system": "Jak2-mediated phosphorylation of STAT5", "assay": "Jak2-mediated phosphorylation of STAT5 in blood cells after Aranesp stimulation", "type": "in vivo, C57B1/6 mice", "conditions": "co-treatment 60 mg/kg p.o., stimulation by Aranesp"}, "[3]": {"system": "LF01-SSB-induced lethality and visible hematuria", "assay": "Suppression of LF01-SSB-induced lethality and visible hematuria by inhibitors", "type": "in vivo", "conditions": "rats"}, "[4]": {"system": "LF01-SSB-induced toxicities", "assay": "LF01-SSB-induced toxicities in rats with or without inhibitor pretreatment", "type": "in vivo"}, "[5]": {"conditions": "pre-treatment 1 hr prior to LF01-SSB 3 mg/kg IV"}},
  "data": [
    {"smiles": "NC(=O)c1cnc(NC(C2CC2)C2CC2)c2c1[nH]c1cc(-c3cnc(N)nc3)ccc12", "values": [
      {"measurement": "IC50", "setting": "Jak2", "value": 1, "unit": "nM"},
      {"measurement": "adverse effects of treatment alone", "setting": "[1]", "value": "no adverse effects"},
      {"measurement": "duration of profound suppression of Jak2-mediated phosphorylation of STAT5 in blood cells", "setting": "[2]", "value": "> 8", "unit": "h"},
      {"measurement": "effect on LF01-SSB-induced lethality and visible hematuria", "setting": "[3]; pre-dosed 1 hr before LF01-SSB 9 mpk IV, monitored 96 hr", "value": "completely prevented"},
      {"measurement": "Rescue effect: Death, +inhibitor/−inhibitor", "setting": "[3]; inhibitor 1 hr prior to LF01-SSB 9 mg/kg IV, deaths until 96 hr, animals with inhibitor/without inhibitor", "value": "0/5"},
      {"measurement": "Rescue effect: Red urine, +inhibitor/−inhibitor", "setting": "[3]; inhibitor 1 hr prior to LF01-SSB 9 mg/kg IV, urine collected over 24 hr, animals with inhibitor/without inhibitor", "value": "0/5"},
      {"measurement": "effect on LF01-siRNA induction of IFNγ", "setting": "[4]; plasma 3 hr post LF01-SSB dose", "value": "profound inhibition"},
      {"measurement": "effect on LF01-siRNA induction of IL-6", "setting": "[4]; plasma 3 hr post LF01-SSB dose", "value": "profound inhibition"},
      {"measurement": "effect on LF01-siRNA induction of MCP-1", "setting": "[4]; plasma 3 hr post LF01-SSB dose", "value": "profound inhibition"},
      {"measurement": "effect on LF01-siRNA induction of TNFα", "setting": "[4]; plasma 3 hr post LF01-SSB dose", "value": "moderate suppression"},
      {"measurement": "effect on LF01-SSB toxic responses (cytokine induction, ALT and AST elevation, thrombocytopenia, elongation of aPTT, hepatic and splenic cell death)", "setting": "[4]; [5]", "value": "suppressed all toxic responses"},
      {"measurement": "lethality after pre-treatment", "setting": "[4]; [5]", "value": "no death"}
    ]}
  ]
}
